Assay [1] has as its target T1, rat M1 mutant^123 muscarinic acetylcholine receptor (Rattus norvegicus, UniProt P08482). The settings on record: mutant^123 cells stimulated with agonist (data not shown).
Assay [2] has as its target T2, rat M1 wild-type muscarinic acetylcholine receptor (Rattus norvegicus, UniProt P08482). The note with it: naïve CHO rM1 cells.
Assay [3] addresses T1, rat M1 mutant^123 muscarinic acetylcholine receptor. The note with it: read-out: KD of [3H]NMS binding after xanomeline pretreatment.
The target in assay [4] is T2, rat M1 wild-type muscarinic acetylcholine receptor. Put plainly: cell-based. The note with it: KD of [3H]NMS binding after xanomeline pretreatment, washout.
The target is the same in assay [5]. Nature of the assay: cell-based.

Sequences of proteins named here, by UniProt entry; tags and fusion partners are left off.
UniProt P08482, whole entry, stated change not applied: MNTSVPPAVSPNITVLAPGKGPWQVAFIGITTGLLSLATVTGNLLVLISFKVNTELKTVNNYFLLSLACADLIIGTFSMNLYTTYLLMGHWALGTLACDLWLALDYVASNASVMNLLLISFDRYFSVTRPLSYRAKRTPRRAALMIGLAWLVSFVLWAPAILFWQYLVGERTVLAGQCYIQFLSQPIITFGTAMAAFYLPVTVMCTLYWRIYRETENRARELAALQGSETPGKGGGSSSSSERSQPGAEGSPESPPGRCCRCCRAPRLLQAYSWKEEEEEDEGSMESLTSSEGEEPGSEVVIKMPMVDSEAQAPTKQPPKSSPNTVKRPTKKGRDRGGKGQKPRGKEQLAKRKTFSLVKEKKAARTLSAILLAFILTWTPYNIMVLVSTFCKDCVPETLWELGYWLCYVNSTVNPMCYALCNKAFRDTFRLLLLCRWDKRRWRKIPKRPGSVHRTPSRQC

“And” between values parts separate entries of the source, which are not always exact repeats. Equal values may be shown once.

The Kd is a measure of binding affinity in units of concentration. As a reminder, the EC50 is the concentration that produces a half-maximal response. Low readings indicate an effect from little substance, high ones a need for much substance.

Consider `C[N+](C)(C)CCOC(N)=O` [carbachol], for which the PI response entry in assay [1] was “did not produce a significant PI response”. Also, in assay [2], the “Emax, maximal response” value came to 23000±6100 dpm.
As to `CCCCCCOc1nsnc1C1=CCCN(C)C1` [xanomeline, 3-[3-hexyloxy-1,2,5-thiadiazo-4-yl]-1,2,5,6-tetrahydro-1-methylpyridine], the Kd is 0.42 nM and 0.26 nM and 0.49 nM in assay [3]; 0.4 ± 0.04 nM in assay [4] (3 µM xanomeline 1 h); 0.3 ± 0.04 nM in assay [4] (3 µM xanomeline 1 h, 23 h wait); 0.6 ± 0.12 nM in assay [4] (3 µM xanomeline 24 h). The molecule also had a concentration for a half-maximal effect (EC50) in assay [5] of 39.8 nM.

(Values after paper PMC3009740 (PLoS ONE, 2010).)
